From patent US20130089512A1, “HETEROARYL IMIDAZOLONE DERIVATIVES AS JAK INHIBITORS” (priority 2010, published 2013) come the findings set out here.

Chains of the proteins cited; added tags and fusions are not shown. Residues count along the entry.
UniProt P23458, 850-1154: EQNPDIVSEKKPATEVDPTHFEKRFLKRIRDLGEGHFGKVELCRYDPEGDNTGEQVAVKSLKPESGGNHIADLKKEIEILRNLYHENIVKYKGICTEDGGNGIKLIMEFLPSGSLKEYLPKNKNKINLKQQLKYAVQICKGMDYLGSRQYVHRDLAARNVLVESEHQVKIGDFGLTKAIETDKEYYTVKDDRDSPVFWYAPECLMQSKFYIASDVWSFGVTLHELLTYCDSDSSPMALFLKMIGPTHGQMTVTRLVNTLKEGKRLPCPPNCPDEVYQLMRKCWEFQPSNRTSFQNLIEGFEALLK

The term IC50 denotes the concentration at which inhibition is half-maximal.

This test has as its target human JAK1 (aa 850-1154) (Homo sapiens, UniProt P23458). In words: In vitro JAK kinase assay (TR-FRET), JAK1. (TR-FRET usually uses a lanthanide donor and a delayed reading to cut background.)

`O=c1[nH]c2cnc(-c3cnc4ccc(F)cn34)nc2n1[C@H]1CC[C@H](O)CC1` [Example 48, 2-(6-Fluoroimidazo[1,2-a]pyridin-3-yl)-9-((1r,4r)-4-hydroxycyclohexyl)-7H-purin-8(9H)-one] yielded an IC50 of 100 to 1000 nM.
